Tested on: histamine
Assay: Rat Allergic Mediator Induced Dermal Vascular Permeability Test, histamine challenge
Type: in vivo
Details: 1 mg/kg
Experimental: Ten minutes later, the animals are challenged by intradermally injecting 0.1 ml of a water solution of either serotonin (1 μg/ml), histamine (20 μg/ml) or bradykinin (10 μg/ml) into separate sites on the back. Five minutes following challenge the animals are killed, the skin retracted, and the mean diameter of the blue wheal and flare reaction is calculated as the difference in mean diameter between a saline control and the drug treated group, divided by the control diameter, and then multiplied times 100. Statistical analysis of the data is done using a Student T-test program. […] (Set: Serotonin; His: histamine; Bk: bradykinin)

[1] = Table 4 (ip administration of test compound)
[2] = Table 5 (po administration of test compound)

## CN1CCC(=C2c3ccccc3C=Cc3ccccc32)CC1 [Cyproheptadine, cyproheptadine, reference compound]
[1]
  % Inhibition, His: 92.9%
  Wheal Measurement, His: 0.8 mm
[2]
  % Inhibition, His: 100%
  Wheal Measurement, His: 0 mm
